Literature values in patent publication US6585957B1, “Medicinal aerosol formulation” (Aeropharm Technology Incorporated, priority 2000, dated 2003).
Like-named read-outs stand apart in the source and are kept apart here.

What was measured:
[1] = aerosolized insulin delivered into the lung; multiple studies, results quite variable

## insulin
[1]
  half-life: 15 to 25 min
Aerosolized insulin given peripherally into the lung of rabbits
  bioavailability: over 50.7%
Liquid insulin dripped into the central airways
  bioavailability: 5.6%
